Target: Orexin/Hypocretin receptor type 1 (Rattus norvegicus, UniProt P56718)
Assay: Radioligand Binding Assay

Chains of the proteins cited; added tags and fusions are not shown.
UniProt P56718, whole entry, looked up: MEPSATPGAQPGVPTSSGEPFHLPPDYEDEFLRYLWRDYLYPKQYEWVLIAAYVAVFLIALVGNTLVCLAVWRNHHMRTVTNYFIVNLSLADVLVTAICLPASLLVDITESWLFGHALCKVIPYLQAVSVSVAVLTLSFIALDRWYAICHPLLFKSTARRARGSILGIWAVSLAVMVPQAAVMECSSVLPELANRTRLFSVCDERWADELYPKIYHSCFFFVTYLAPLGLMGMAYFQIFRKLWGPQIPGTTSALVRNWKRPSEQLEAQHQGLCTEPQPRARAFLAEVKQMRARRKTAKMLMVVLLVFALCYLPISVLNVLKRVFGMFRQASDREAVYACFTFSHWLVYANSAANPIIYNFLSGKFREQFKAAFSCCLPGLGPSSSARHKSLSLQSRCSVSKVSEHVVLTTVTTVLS

SMILES: Cc1ccc(-n2nccn2)c(C(=O)N2C3CCC2C(Nc2ccc(Br)cn2)C3)n1 (stereo unspecified)
- Ki: 38 nM

From BindingDB's records for US9475819
